From patent publication US20130174289A1, “Na+/Mg2+ Exchanger” (FBN - Leibnitz-Institut fur Nutztierbiologie, published 2013)

Target: SLC41A1 (human)
Assay: split-ubiquitin method screen (DUALmembrane SU-YTH) for SLC41A1 complex-forming partners

- occurrence: 24 clones
B1: 3-beta-hydroxysteroid-Delta(8), Delta(7)-isomerase (enzyme)
chain: MTTNAGPLHPYWPQHLRLDNFVPNDRPTWHILAGLFSVTGVLVVTTWLLSGRAAVVPLGTWRRLSLCWFAVCGFIHLVIEGWFVLYYEDLLGDQAFLSQLWKEYAKGDSRYILGDNFTVCMETITACLWGPLSLWVVIAFLRQHPLRFILQLVVSVGQIYGDVLYFLTEHRDGFQHGELGHPLYFWFYFVFMNALWLVLPGVLVLDAVKHLTHAQSTLDAKATKAKSKKN
